Experiment [1] deals with T1, aggregated tau (4R-tau) in CBD brain tissue homogenates (Homo sapiens, UniProt P10636). Kind of experiment: biochemical.
Experiment [2] deals with T1, aggregated tau (4R-tau) in CBD brain tissue homogenates. Kind of experiment: biochemical. This is another data set of the same source.
In experiment [3] the target is N neuronal alpha4beta2 (h) (Homo sapiens, UniProt P17787+P43681). The following applies: reference compound.
The target of experiment [4] is aggregated tau (site where 5 binds) in AD brain tissue homogenates (Homo sapiens, UniProt P10636). Kind of experiment: In vitro competition (Ki) assay versus [^3H]5, AD brain tissue homogenate. In kind it is binding.
The target in experiment [5] is T2, aggregated tau (site where 5 binds) in CBD brain tissue homogenates (Homo sapiens, UniProt P10636).
T2 construct: from tissue; host or cells: post-mortem human CBD brain, middle frontal gyrus homogenate
The experiment in a line: In vitro competition (Ki) assay versus [^3H]5, CBD brain tissue homogenate. Format: binding.

By UniProt entry, the sequences of proteins in these tests, tags left out. Where a name states a change or a piece, a line headed by the entry shows the natural chain unless it says otherwise. Residues count along the entry.
UniProt P10636, 623-695 limits assumed: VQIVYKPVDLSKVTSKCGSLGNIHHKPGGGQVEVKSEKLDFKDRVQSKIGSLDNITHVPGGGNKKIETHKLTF
UniProt P10636, 623-708 limits assumed: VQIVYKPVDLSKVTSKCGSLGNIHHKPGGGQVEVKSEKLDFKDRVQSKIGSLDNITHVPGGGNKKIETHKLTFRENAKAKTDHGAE
UniProt P17787, 26-502: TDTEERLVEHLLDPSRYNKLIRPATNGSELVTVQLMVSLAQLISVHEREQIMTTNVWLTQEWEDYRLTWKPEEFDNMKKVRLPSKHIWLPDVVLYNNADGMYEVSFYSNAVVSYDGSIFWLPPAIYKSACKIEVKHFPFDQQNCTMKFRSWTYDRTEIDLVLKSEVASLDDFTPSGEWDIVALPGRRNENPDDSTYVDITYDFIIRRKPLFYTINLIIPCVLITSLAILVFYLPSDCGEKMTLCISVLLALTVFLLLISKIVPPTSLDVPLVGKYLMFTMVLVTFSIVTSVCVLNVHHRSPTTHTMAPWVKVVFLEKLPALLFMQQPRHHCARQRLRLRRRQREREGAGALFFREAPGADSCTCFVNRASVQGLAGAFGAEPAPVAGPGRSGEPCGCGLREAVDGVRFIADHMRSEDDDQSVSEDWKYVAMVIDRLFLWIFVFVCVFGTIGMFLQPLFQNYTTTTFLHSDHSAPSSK
UniProt P43681, 29-627: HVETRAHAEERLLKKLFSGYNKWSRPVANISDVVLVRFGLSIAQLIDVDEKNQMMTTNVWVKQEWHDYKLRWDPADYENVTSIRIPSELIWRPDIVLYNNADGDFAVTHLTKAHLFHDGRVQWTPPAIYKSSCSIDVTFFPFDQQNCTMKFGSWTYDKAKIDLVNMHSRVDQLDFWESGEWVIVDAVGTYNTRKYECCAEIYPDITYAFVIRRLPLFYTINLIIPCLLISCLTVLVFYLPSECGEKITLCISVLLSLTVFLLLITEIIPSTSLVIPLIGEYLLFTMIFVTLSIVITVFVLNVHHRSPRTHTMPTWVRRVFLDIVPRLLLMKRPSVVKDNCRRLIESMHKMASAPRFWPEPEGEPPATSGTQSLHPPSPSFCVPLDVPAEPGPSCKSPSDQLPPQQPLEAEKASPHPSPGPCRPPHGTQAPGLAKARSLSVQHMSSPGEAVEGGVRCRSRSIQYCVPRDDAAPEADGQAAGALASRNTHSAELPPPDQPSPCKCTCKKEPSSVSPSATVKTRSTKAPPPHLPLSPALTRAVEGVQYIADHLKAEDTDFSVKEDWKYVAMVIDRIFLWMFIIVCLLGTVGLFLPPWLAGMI
UniProt P05067, 672-713 limits assumed: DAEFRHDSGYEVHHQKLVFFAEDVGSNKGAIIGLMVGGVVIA
UniProt P35368, whole entry: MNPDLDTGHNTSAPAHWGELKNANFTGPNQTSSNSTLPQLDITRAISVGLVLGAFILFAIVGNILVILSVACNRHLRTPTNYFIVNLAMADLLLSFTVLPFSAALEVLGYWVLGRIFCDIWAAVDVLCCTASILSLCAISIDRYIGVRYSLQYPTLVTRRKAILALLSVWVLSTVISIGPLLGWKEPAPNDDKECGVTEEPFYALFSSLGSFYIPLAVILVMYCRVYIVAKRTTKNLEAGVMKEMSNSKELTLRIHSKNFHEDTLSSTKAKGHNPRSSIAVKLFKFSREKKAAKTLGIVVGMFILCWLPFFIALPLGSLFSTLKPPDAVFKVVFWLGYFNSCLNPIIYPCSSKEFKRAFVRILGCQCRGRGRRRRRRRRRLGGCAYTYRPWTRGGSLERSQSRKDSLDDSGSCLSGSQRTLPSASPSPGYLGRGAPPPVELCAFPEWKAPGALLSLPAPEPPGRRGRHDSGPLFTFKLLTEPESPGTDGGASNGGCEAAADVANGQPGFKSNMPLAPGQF
UniProt P30536, whole entry: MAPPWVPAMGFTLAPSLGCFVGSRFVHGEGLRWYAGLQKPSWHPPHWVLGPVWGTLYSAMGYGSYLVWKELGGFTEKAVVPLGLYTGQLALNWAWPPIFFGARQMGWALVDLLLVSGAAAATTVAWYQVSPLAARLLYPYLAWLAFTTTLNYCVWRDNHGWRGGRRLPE
UniProt P06213, 28-1382: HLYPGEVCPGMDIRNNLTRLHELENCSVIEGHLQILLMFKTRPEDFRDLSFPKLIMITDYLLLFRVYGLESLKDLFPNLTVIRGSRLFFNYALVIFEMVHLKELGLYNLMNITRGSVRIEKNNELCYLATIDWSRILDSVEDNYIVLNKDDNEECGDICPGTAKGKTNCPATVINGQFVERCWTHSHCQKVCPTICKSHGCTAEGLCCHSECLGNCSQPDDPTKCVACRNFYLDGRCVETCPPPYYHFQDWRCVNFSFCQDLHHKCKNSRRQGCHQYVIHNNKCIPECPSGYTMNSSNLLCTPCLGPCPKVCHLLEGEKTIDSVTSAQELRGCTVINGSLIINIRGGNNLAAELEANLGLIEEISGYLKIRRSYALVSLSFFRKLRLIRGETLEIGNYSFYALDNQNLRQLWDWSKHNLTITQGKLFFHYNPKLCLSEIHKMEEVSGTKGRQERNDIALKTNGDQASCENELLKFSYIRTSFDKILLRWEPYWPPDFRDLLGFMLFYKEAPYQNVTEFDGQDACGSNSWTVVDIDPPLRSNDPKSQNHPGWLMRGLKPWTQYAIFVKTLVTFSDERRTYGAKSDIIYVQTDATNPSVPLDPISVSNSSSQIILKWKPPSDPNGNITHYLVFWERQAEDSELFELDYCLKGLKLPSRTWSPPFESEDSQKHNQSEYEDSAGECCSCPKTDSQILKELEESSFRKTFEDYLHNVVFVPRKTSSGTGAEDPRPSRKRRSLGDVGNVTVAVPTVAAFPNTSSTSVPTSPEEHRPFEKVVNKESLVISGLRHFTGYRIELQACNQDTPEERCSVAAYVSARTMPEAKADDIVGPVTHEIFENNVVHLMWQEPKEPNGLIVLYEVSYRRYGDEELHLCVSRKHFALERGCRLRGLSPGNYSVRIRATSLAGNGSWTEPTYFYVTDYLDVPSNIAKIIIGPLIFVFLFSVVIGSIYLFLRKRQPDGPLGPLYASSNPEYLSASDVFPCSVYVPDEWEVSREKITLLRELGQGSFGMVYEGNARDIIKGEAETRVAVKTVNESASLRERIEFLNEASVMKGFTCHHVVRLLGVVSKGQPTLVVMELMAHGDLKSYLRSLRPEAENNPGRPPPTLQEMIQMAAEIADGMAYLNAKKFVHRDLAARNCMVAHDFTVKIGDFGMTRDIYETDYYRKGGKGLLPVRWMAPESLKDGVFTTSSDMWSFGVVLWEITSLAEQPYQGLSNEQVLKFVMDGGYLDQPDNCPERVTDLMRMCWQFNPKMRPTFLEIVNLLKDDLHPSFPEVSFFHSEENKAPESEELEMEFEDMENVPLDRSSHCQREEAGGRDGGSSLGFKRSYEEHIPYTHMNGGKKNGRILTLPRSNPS

Experiment [6] concerns the target T3, aggregated tau (site where 5 binds) in PSP brain tissue homogenates (Homo sapiens, UniProt P10636).
T3 construct: from tissue
Kind of experiment: In vitro competition (Ki) assay versus [^3H]5, PSP brain tissue homogenate. Format: binding.

In experiment [7] the target is T1, aggregated tau (4R-tau) in CBD brain tissue homogenates. The experiment in a line: In vitro competition (Ki) assay versus [^3H]3, CBD brain tissue homogenate. Format: binding. Details: from tissue; host or cells: post-mortem human CBD brain, middle frontal gyrus homogenate.
For experiment [8], the target named is T4, PiB binding site on amyloid-β in AD brain tissue homogenates (Homo sapiens, UniProt P05067).
T4 construct: from tissue; host or cells: post-mortem human AD brain, middle frontal gyrus homogenate
The experiment in a line: In vitro competition (Ki) assay versus [^3H]PiB, AD brain tissue homogenate.

For experiment [9], the target named is T5, aggregated tau (4R-tau) in PSP brain tissue homogenates (Homo sapiens, UniProt P10636).
T5 construct: from tissue
Kind of experiment: In vitro competition (Ki) assay versus [^3H]3, PSP brain tissue homogenate. Format: binding.

Experiment [10] has as its target T5, aggregated tau (4R-tau) in PSP brain tissue homogenates. Kind of experiment: In vitro competition (Ki) assay versus [^3H]8, PSP brain tissue homogenate. Format: binding.
The target of experiment [11] is T6, aggregated tau (mixed 3R/4R-tau) in AD brain tissue homogenates (Homo sapiens, UniProt P10636). Kind of experiment: In vitro competition (Ki) assay versus [^3H]3, AD brain tissue homogenate. Format: binding.
The target of experiment [12] is T5, aggregated tau (4R-tau) in PSP brain tissue homogenates. The experiment in a line: In vitro competition (Ki) assay versus [^3H]7, PSP brain tissue homogenate. Format: binding.
The target of experiment [13] is T6, aggregated tau (mixed 3R/4R-tau) in AD brain tissue homogenates. Kind of experiment: In vitro competition (Ki) assay versus [^3H]7, AD brain tissue homogenate. Format: binding.
Experiment [14] has the same target. Kind of experiment: In vitro competition (Ki) assay versus [^3H]8, AD brain tissue homogenate. In kind it is binding.
The next experiment has as its target GABA transporter (Rattus norvegicus, UniProt P23978). The following applies: Specific binding; reference compound.
The next experiment deals with alpha1B (h) (Homo sapiens, UniProt P35368). The following applies: reference compound.
In a further experiment the target is BZDp (TSPO) (h) (Homo sapiens, UniProt P30536). Kind of experiment: Eurofins panel: BZDp (TSPO) (h) (antagonist radioligand).
In the next experiment the target is IRK (h) (InsR) (Homo sapiens, UniProt P06213). The following applies: Enzymatic activity; reference compound.
[15] abbreviates: AD brain tissue homogenate, radioligand [^3H]5, read-out: Ki versus [^3H]5, AD tissue.
Where [16] appears, read: CBD brain tissue homogenate, radioligand [^3H]5, read-out: Ki versus [^3H]5, CBD tissue.
The mark [17] stands for this setting: PSP brain tissue homogenate, radioligand [^3H]5, read-out: Ki versus [^3H]5, PSP tissue.

The values that follow come from article PMC11956013, “Structure–Activity Relationships and Evaluation of 2-(Heteroaryl-cycloalkyl)-1H-indoles as Tauopathy Positron Emission Tomography Radiotracers” (Journal of Medicinal Chemistry, 2025).

Like-named read-outs stand apart in the source and are kept apart here.

With `Fc1cc(-c2cc3ccccc3[nH]2)cnc1N1CCCCC1` [Compound 95, 2-(5-Fluoro-6-(piperidin-1-yl)pyridin-3-yl)-1H-indole], in [1], the Ki turned out to be 0.014 µM.
As to `Fc1cc(N2CCCCC2)cnc1-c1cc2ccccc2[nH]1` [Compound 98, 2-(3-Fluoro-5-(piperidin-1-yl)pyridin-2-yl)-1H-indole], in experiment [1], the Ki was determined as 0.016 µM.
Compound `Fc1ccc2[nH]c(-c3cnc(N4CCOCC4)nc3)cc2c1` [Compound 78, 4-(5-(5-Fluoro-1H-indol-2-yl)pyrimidin-2-yl)morpholine] had a Ki in [1] of 0.01 µM.
Take `FCCOCCOC1CCN(c2ncc(-c3cc4ccccc4[nH]3)cn2)CC1` [Compound 108, 2-(2-(4-(2-(2-Fluoroethoxy)ethoxy)piperidin-1-yl)pyrimidin-5-yl)-1H-indole]: the Ki was determined as 0.03 µM in experiment [1] and 0.039 µM in experiment [2].
As to `Fc1ccc2cc(-c3cnc(N4CC[C@@H](F)C4)nc3)[nH]c2c1` [Compound (R)-43, (R)-6-Fluoro-2-(2-(3-fluoropyrrolidin-1-yl)pyrimidin-5-yl)-1H-indole], the results for the inhibition constant (Ki) in [1] and in experiment [2] were 0.02 µM and 0.015 µM, respectively.
With `CN1CCC[C@H]1c1cccnc1` [nicotine], the “nH, Specific binding” value in experiment [3] amounted to 0.827.
For the compound `COC1CCN(c2ncc(-c3cc4ccc(F)cc4[nH]3)cn2)CC1` [Compound 42, 6-Fluoro-2-(2-(4-methoxypiperidin-1-yl)pyrimidin-5-yl)-1H-indole], the Ki came to 0.014 µM in experiment [1] and 0.0082 µM in [2].
The compound `Fc1ccc2cc(-c3ccc(N4CCCCC4)nc3F)[nH]c2c1` [Compound 81, 6-Fluoro-2-(2-fluoro-6-(piperidin-1-yl)pyridin-3-yl)-1H-indole] yielded a Ki in experiment [1] of 0.026 µM.
Still for that read-out and setting: as for `Fc1cc(N2CCOCC2)cnc1-c1cc2ccccc2[nH]1` [Compound 103, 4-(5-Fluoro-6-(1H-indol-2-yl)pyridin-3-yl)morpholine], the figure is 0.022 µM.
Take `OC1CN(c2ncc(-c3cc4ccc(F)cc4[nH]3)cn2)CC1F` (stereo not drawn) [Compound 27, 4-Fluoro-1-(5-(6-fluoro-1H-indol-2-yl)pyrimidin-2-yl)pyrrolidin-3-ol]: the Ki is 0.214 µM in experiment [4] (setting [15]); 0.01 µM in experiment [1]; 0.273 µM in [5] (setting [16]); 0.219 µM in [6] (setting [17]); 0.009 µM in experiment [2].
In the same order, the values of `Fc1ccc2cc(-c3cnc(N4CCCCC4)nc3)[nH]c2c1` [Compound 21, 6-Fluoro-2-(2-(piperidin-1-yl)pyrimidin-5-yl)-1H-indole] are 0.182 µM, 0.012 µM, 0.189 µM, 0.185 µM and 0.0063 µM.
With `Fc1ccc2cc(-c3ccc(N4CCCCC4)nc3)[nH]c2c1` [Compound 45, 6-Fluoro-2-(6-(piperidin-1-yl)pyridin-3-yl)-1H-indole], the Ki amounted to 0.188 µM in experiment [4] (setting [15]); 0.0059 µM in experiment [1]; 0.221 µM in experiment [5] (setting [16]); 0.218 µM in experiment [6] (setting [17]); 0.0062 µM in experiment [2].
As for `Fc1ccc2cc(-c3ccc(N4CCOCC4)nc3)[nH]c2c1` [Compound 46, 4-(5-(6-Fluoro-1H-indol-2-yl)pyridin-2-yl)morpholine], the Ki in experiment [4] (setting [15]) worked out at 0.185 µM; in experiment [1], 0.012 µM; in experiment [5] (setting [16]), 0.229 µM; in experiment [6] (setting [17]), 0.227 µM; in [2] it was 0.011 µM.
On to `Fc1nc(N2CCOCC2)ccc1-c1cc2ccccc2[nH]1` [Compound 75, 4-(6-Fluoro-5-(1H-indol-2-yl)pyridin-2-yl)morpholine], for which the Ki is 0.203 µM in experiment [4]; 0.03 µM in [7]; 0.011 µM in experiment [1]; 0.36 µM in experiment [5]; 0.061 ± 0.003 µM in experiment [8]; 0.028 µM in [9]. In addition, the Ki in experiment [6] is 0.335 µM; in experiment [10] it was 0.01 µM; in experiment [11], 0.022 µM; in experiment [2], 0.013 µM; in [12], 0.01 µM; in [13], 0.0092 µM. Moreover, in [14], the affinity, expressed as Ki, was 0.0065 µM.
Compound `O=C(O)C1CCCNC1` (stereo not drawn) [nipecotic acid] showed a nH at GABA transporter of 1.27.
Regarding `O=C1CCN(c2ncc(-c3cc4ccc(F)cc4[nH]3)cn2)CC1` [Compound 44, 1-(5-(6-Fluoro-1H-indol-2-yl)pyrimidin-2-yl)piperidin-4-one], the Ki in experiment [1] worked out at 0.015 µM; in experiment [2], 0.017 µM.
For the compound `COc1cc2nc(N3CCN(C(=O)c4ccco4)CC3)nc(N)c2cc1OC` [prazosin], the “nH, Specific binding” value at alpha1B (h) is on record as 1.079.
With `Fc1cc(-c2cc3ccccc3[nH]2)cnc1N1CCOCC1` [Compound 96, 4-(3-Fluoro-5-(1H-indol-2-yl)pyridin-2-yl)morpholine], the Ki in experiment [1] turned out to be 0.0095 µM.
`Fc1ccc2cc(-c3cnc(N4CCOCC4)c(F)c3)[nH]c2c1` [Compound 90, 4-(3-Fluoro-5-(6-fluoro-1H-indol-2-yl)pyridin-2-yl)morpholine] registered a Ki in [1] of 0.018 µM.
For the compound `CCC(C)N(C)C(=O)c1cc2ccccc2c(-c2ccccc2Cl)n1` (stereo not drawn) [PK 11195], at BZDp (TSPO) (h), the IC50 was 0.0119 µM and the Ki amounted to 0.0109 µM.
Turning to `Fc1cc(N2CCOCC2)ncc1-c1cc2ccccc2[nH]1` [Compound 94, 4-(4-Fluoro-5-(1H-indol-2-yl)pyridin-2-yl)morpholine], the Ki in experiment [1] amounted to 0.012 µM.
Still for that read-out and setting: as for `Fc1ccc2cc(-c3cnc(N4CCOCC4)cn3)[nH]c2c1` [Compound 87, 4-(5-(6-Fluoro-1H-indol-2-yl)pyrazin-2-yl)morpholine], the figure is 0.0082 µM.
`CN[C@@H]1C[C@H]2O[C@@](C)([C@@H]1OC)n1c3ccccc3c3c4c(c5c6ccccc6n2c5c31)C(=O)NC4` [staurosporine] had a nH on IRK (h) (InsR) of 1.241.
`Fc1ccc2cc(-c3cnc(N4CCCCC4)c(F)c3)[nH]c2c1` [Compound 89, 6-Fluoro-2-(5-fluoro-6-(piperidin-1-yl)pyridin-3-yl)-1H-indole]: affinity in experiment [1] was put at a Ki of 0.0087 µM.
As to `Fc1ccc2[nH]c(-c3ccc(N4CCOCC4)nc3)cc2c1` [Compound 79, 4-(5-(5-Fluoro-1H-indol-2-yl)pyridin-2-yl)morpholine], the affinity in [1], expressed as Ki, was 0.0077 µM.
On the same count and under the same terms, as for `Fc1cc(-c2cc3ccccc3[nH]2)ncc1N1CCOCC1` [Compound 105, 4-(4-Fluoro-6-(1H-indol-2-yl)pyridin-3-yl)morpholine], the figure is 0.049 µM; as for `Fc1ccc2cc(-c3cc(F)c(N4CCOCC4)cn3)[nH]c2c1` [Compound 106, 4-(4-Fluoro-6-(6-fluoro-1H-indol-2-yl)pyridin-3-yl)morpholine], 0.056 µM.

What is called Ki is the equilibrium dissociation constant of an inhibitor or competing ligand from its target. For orientation: IC50 means the point on the concentration scale where inhibition reaches its midpoint.
